Data on three molecules can be found in patent US20180333502A1 (published 2018).

A word on the EC50: it is the concentration needed to bring the measured effect to its halfway point.

First the molecules themselves.
T1: human GITR on cells (activated human T cells; 3A9-hGITR cells) (human, UniProt Q9Y5U5 26-241)
T1 chain: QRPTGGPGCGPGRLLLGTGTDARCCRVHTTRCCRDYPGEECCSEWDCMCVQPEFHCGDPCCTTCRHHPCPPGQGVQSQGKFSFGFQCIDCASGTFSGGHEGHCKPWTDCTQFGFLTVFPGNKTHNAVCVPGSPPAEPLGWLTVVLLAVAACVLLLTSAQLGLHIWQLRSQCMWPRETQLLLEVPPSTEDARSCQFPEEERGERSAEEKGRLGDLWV

B1: anti-GITR-IgG2-IgG1 (antibody)
heavy: QVQLVESGGGVVQPGRSLRLSCAASGFTFSSYGMHWVRQAPGKGLEWVAVIWYEGSNKYYADSVKGRFTISRDNSKNTLYLQMNSLRAEDTAVYYCARGGSMVRGDYYYGMDVWGQGTTVTVSSASTKGPSVFPLAPCSRSTSESTAALGCLVKDYFPEPVTVSWNSGALTSGVHTFPAVLQSSGLYSLSSVVTVPSSNFGTQTYTCNVDHKPSNTKVDKTVERKCCVE[human IgG1 Fc not written out]
light: AIQLTQSPSSLSASVGDRVTITCRASQGISSALAWYQQKPGKAPKLLIYDASSLESGVPSRFSGSGSGTDFTLTISSLQPEDFATYYCQQFNSYPYTFGQGTKLEIKRTVAAPSVFIFPPSDEQLKSGTASVVCLLNNFYPREAKVQWKVDNALQSGNSQESVTEQDSKDSTYSLSSTLTLSKADYEKHKVYACEVTHQGLSSPVTKSFNRGEC
B2: anti-GITR-IgG1 (antibody)
heavy: QVQLVESGGGVVQPGRSLRLSCAASGFTFSSYGMHWVRQAPGKGLEWVAVIWYEGSNKYYADSVKGRFTISRDNSKNTLYLQMNSLRAEDTAVYYCARGGSMVRGDYYYGMDVWGQGTTVTVSSASTKGPSVFPLAPSSKSTSGGTAALGCLVKDYFPEPVTVSWNSGALTSGVHTFPAVLQSSGLYSLSSVVTVPSSSLGTQTYICNVNHKPSNTKVDKKV[human IgG1 Fc not written out]
light: AIQLTQSPSSLSASVGDRVTITCRASQGISSALAWYQQKPGKAPKLLIYDASSLESGVPSRFSGSGSGTDFTLTISSLQPEDFATYYCQQFNSYPYTFGQGTKLEIKRTVAAPSVFIFPPSDEQLKSGTASVVCLLNNFYPREAKVQWKVDNALQSGNSQESVTEQDSKDSTYSLSSTLTLSKADYEKHKVYACEVTHQGLSSPVTKSFNRGEC
B3: anti-GITR-IgG1.1 (antibody)
heavy: QVQLVESGGGVVQPGRSLRLSCAASGFTFSSYGMHWVRQAPGKGLEWVAVIWYEGSNKYYADSVKGRFTISRDNSKNTLYLQMNSLRAEDTAVYYCARGGSMVRGDYYYGMDVWGQGTTVTVSSASTKGPSVFPLAPSSKSTSGGTAALGCLVKDYFPEPVTVSWNSGALTSGVHTFPAVLQSSGLYSLSSVVTVPSSSLGTQTYICNVNHKPSNTKVDKKVEPKSCDKTHTCPPCPAPEAEGAPSVFLFPPKPKDTLMISRTPEVTCVVVDVSHEDPEVKFNWYVDGVEVHNAKTKPREEQYNSTYRVVSVLTVLHQDWLNGKEYKCKVSNKALPSSIEKTISKAKGQPREPQVYTLPPSREEMTKNQVSLTCLVKGFYPSDIAVEWESNGQPENNYKTTPPVLDSDGSFFLYSKLTVDKSRWQQGNVFSCSVMHEALHNHYTQKSLSLSPG
light: AIQLTQSPSSLSASVGDRVTITCRASQGISSALAWYQQKPGKAPKLLIYDASSLESGVPSRFSGSGSGTDFTLTISSLQPEDFATYYCQQFNSYPYTFGQGTKLEIKRTVAAPSVFIFPPSDEQLKSGTASVVCLLNNFYPREAKVQWKVDNALQSGNSQESVTEQDSKDSTYSLSSTLTLSKADYEKHKVYACEVTHQGLSSPVTKSFNRGEC

For the test, the target named is T1, human GITR on cells (activated human T …). Briefly: FACS binding to activated human CD4 T cells. In general terms: In flow cytometry, cells or beads pass a laser one at a time.
B1 returned an EC50 of 0.203 nM. That is a sub-nanomolar value. Next, B2: 0.257 nM; B3: 0.286 nM.
